# Reference: ChEMBL document CHEMBL3600346, “Synthesis and carbonic anhydrase inhibitory properties of novel uracil derivatives” (Bioorg Med Chem Lett, 2015)
# Sequences of proteins named here, by UniProt entry; tags and fusion partners are left off. A change or cut given only in a name is not applied to a line headed by its entry.
# UniProt P00915: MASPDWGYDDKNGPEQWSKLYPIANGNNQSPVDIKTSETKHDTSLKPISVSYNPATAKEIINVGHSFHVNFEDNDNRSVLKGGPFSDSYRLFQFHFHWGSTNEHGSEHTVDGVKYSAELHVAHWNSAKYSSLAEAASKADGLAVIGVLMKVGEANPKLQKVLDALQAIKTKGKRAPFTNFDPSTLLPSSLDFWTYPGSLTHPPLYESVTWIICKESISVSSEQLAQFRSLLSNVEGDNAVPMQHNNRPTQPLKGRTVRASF
# The source made the active and inactive calls. The rule behind the calls is not given here.
# Molecular target: Carbonic anhydrase 1 (Homo sapiens, UniProt P00915)
# Assay: Competitive inhibition of human erythrocytes CA1 using 4-nitrophenylacetate as substrate by Lineweaver-Burk plot analysis
structure (smiles),measurement,value
O=c1[nH]cc(CO)c(=O)[nH]1,inhibition mode,Active
